Data on 1 compound can be found in patent US20210220420A1, “BOTANICAL COMPOSITIONS OF SALVIA O[…] ACTIVITY IN EXTENDING CHR[…] AND METHODS OF USE” (priority 2016, published 2021).

In this test the test system is C. elegans strain with a pharyngeal GFP tag and a bus-5 mutation. The test can be described thus: C. elegans chronological lifespan assay versus small molecule AChE inhibitors (Example 4). The format is in vivo. Particulars: 10 mg/ml. As to the method: The samples were prepared as a DMSO-based 10 mg/ml stock, aliquoted when necessary and a serial dilution of the stock solution was performed for N92-4. The stock solutions were stored at −20° C.
The assay was carried out using the standard C. elegans strain with a pharyngeal GFP tag and a bus-5 mutation. The GFP tag enables images of the worms to be captured using fluorescence microscopy. […] The worms were raised in the presence of a treatment or control on 12 well NGM agar plates, and were maintained at 20° C. with sufficient food (Escherichia coli strain OP-50).
A proprietary data analysis software package was used to analyse the effects of different active ingredients on aspects of worm ageing. The package was developed using a MATLAB image analysis algorithm which was adapted to recognise and count worms based on their fluorescence intensity above background fluorescence. A living worm is distinguished from a dead worm based on the degree of movement between two consecutive images, which enables the number of living and cumulative number of dead worms to be tracked throughout the experiment. […] A selection of images was manually checked to ensure the software had correctly identified the number of worms.
The statistical analysis output of OASIS provides Log-Rank and Fishers Exact Test results. The Log-Rank result is a non-parametric test which compares two survival functions for the overall lifespan assay, providing a reliable p-value summarising the whole experiment. The Fishers Exact Test calculates the significance of survival function comparisons at multiple specific time points throughout the experiment, rather than for the overall lifespan

As for `COc1cc2c(cc1OC)C(=O)C(CC1CCN(Cc3ccccc3)CC1)C2` (stereo not shown) [N350, Donepezil], the Restricted mean lifespan was determined as 14.48 days and the “maximum improvement in lifespan” value was “+19.6%”. Under “at day 13 (N350), day 12 (N355, N314), day 9 (N354)”, the “maximum improvement in survival” value is given as “up to +15.8%”. For the same compound, the “improvement in mean life span” value (vs control) is “+11.3%”.
